What was measured:
Assay in all cases: DSF 100 kinase selectivity screen;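 further: compound tested at 20 µM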
Format in all cases: binding
[1] = target: ~100 representative kinases (Homo sapiens, UniProt P52564); conditions: protein MAP2K6; average of three replicates
[2] = target: ~100 representative kinases (Homo sapiens, UniProt Q96GD4); conditions: Protein AURKB; average of three replicates
[3] = target: ~100 representative kinases (Homo sapiens, UniProt P45984); conditions: protein MAPK9; average of three replicates
[4] = target: ~100 representative kinases (Homo sapiens, UniProt P21802); conditions: protein FGFR2; average of three replicates
[5] = target: ~100 representative kinases (Homo sapiens, UniProt Q16566); conditions: Protein CAMK4; average of three replicates
[6] = target: ~100 representative kinases (Homo sapiens, UniProt P22830); conditions: protein FECH; average of three replicates
[7] = target: ~100 representative kinases (Homo sapiens, UniProt Q99986); conditions: Protein VRK1; DSF; average of three replicates
[8] = target: ~100 representative kinases (Homo sapiens, UniProt P54756); conditions: Protein EPHA5; average of three replicates
[9] = target: ~100 representative kinases (Homo sapiens, UniProt O00444); conditions: protein PLK4; average of three replicates
[10] = target: ~100 representative kinases (Homo sapiens, UniProt Q8IU85); conditions: Protein CAMK1D; average of three replicates
[11] = target: ~100 representative kinases (Homo sapiens, UniProt Q92630); conditions: Protein DYRK2; average of three replicates
[12] = target: ~100 representative kinases (Homo sapiens, UniProt P54753); conditions: Protein EPHB3A; average of three replicates
[13] = target: ~100 representative kinases (Homo sapiens, UniProt Q9Y2H1); conditions: Protein STK38L; DSF; average of three replicates
[14] = target: ~100 representative kinases (Homo sapiens, UniProt Q9Y243); conditions: Protein AKT3; average of three replicates
[15] = target: ~100 representative kinases (Homo sapiens, UniProt P16083); conditions: protein NQO2; average of three replicates
[16] = target: ~100 representative kinases (Homo sapiens, UniProt O15264); conditions: protein MAPK13; average of three replicates
[17] = target: ~100 representative kinases (Homo sapiens, UniProt P49759); conditions: Protein CLK1; average of three replicates
[18] = target: ~100 representative kinases (Homo sapiens, UniProt P48730); conditions: Protein CSNK1D; average of three replicates
[19] = target: ~100 representative kinases (Homo sapiens, UniProt Q99640); conditions: protein PKMYT1; average of three replicates
[20] = target: ~100 representative kinases (Homo sapiens, UniProt O94768); conditions: Protein STK17B; DSF; average of three replicates
[21] = target: ~100 representative kinases (Homo sapiens, UniProt Q13627); conditions: Protein DYRK1A; average of three replicates
[22] = target: ~100 representative kinases (Homo sapiens, UniProt Q15375); conditions: Protein EPHA7; average of three replicates
[23] = target: ~100 representative kinases (Homo sapiens, UniProt Q14680); conditions: protein MELK; average of three replicates
[24] = target: ~100 representative kinases (Homo sapiens, UniProt O15164); conditions: Protein TIF1; DSF; average of three replicates
[25] = target: ~100 representative kinases (Homo sapiens, UniProt Q13873); conditions: Protein BMPR2; average of three replicates
[26] = target: ~100 representative kinases (Homo sapiens, UniProt O14733); conditions: protein MAP2K7; average of three replicates
[27] = target: ~100 representative kinases (Homo sapiens, UniProt Q2M2I8); conditions: Protein AAK1; average of three replicates
[28] = target: ~100 representative kinases (Homo sapiens, UniProt Q5VT25); conditions: Protein CDC42BPA; average of three replicates
[29] = target: ~100 representative kinases (Homo sapiens, UniProt P51813); conditions: Protein BMX; average of three replicates
[30] = target: ~100 representative kinases (Homo sapiens, UniProt P45983); conditions: protein MAPK8; average of three replicates
[31] = target: ~100 representative kinases (Homo sapiens, UniProt Q9P289); conditions: protein MST4; average of three replicates
[32] = target: ~100 representative kinases (Homo sapiens, UniProt Q86V86); conditions: protein PIM3; average of three replicates
[33] = target: ~100 representative kinases (Homo sapiens, UniProt Q6PHR2); conditions: Protein ULK3; DSF; average of three replicates
[34] = target: ~100 representative kinases (Homo sapiens, UniProt P15735); conditions: protein PHKG2; average of three replicates
[35] = target: ~100 representative kinases (Homo sapiens, UniProt Q96SB4); conditions: Protein SRPK1; DSF; average of three replicates

By UniProt entry, the sequences of proteins in these tests, tags left out. Residues count along the entry.
UniProt P52564, whole entry: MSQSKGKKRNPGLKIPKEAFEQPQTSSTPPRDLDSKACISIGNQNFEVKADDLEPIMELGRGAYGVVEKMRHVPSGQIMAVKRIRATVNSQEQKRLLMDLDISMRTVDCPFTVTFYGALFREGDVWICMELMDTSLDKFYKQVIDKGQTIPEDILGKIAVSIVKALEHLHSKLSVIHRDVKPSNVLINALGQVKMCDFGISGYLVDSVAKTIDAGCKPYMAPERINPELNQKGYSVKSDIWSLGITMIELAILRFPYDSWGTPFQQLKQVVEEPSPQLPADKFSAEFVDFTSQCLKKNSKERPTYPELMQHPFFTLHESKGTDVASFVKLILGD
UniProt Q96GD4, whole entry: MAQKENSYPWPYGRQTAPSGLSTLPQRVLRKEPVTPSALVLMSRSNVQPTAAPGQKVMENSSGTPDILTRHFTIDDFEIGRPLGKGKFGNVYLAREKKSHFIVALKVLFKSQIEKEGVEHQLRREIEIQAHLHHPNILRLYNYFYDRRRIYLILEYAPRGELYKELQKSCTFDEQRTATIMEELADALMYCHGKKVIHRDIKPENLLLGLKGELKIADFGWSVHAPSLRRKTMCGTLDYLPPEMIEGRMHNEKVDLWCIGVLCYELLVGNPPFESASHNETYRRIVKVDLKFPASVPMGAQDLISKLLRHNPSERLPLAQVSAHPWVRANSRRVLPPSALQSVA
UniProt Q16566, whole entry: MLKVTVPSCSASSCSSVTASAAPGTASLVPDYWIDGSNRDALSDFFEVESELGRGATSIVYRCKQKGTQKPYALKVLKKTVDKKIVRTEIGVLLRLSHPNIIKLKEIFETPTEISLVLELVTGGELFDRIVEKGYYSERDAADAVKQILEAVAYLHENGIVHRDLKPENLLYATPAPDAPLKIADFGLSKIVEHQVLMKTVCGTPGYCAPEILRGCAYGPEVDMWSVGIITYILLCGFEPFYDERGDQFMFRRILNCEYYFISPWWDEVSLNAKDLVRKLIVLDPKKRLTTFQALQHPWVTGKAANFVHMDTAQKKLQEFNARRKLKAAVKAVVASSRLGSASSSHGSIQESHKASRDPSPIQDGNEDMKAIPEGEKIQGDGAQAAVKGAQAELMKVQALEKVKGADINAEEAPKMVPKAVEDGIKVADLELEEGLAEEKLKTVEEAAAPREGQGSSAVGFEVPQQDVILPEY
UniProt P22830, 55-423 limits assumed: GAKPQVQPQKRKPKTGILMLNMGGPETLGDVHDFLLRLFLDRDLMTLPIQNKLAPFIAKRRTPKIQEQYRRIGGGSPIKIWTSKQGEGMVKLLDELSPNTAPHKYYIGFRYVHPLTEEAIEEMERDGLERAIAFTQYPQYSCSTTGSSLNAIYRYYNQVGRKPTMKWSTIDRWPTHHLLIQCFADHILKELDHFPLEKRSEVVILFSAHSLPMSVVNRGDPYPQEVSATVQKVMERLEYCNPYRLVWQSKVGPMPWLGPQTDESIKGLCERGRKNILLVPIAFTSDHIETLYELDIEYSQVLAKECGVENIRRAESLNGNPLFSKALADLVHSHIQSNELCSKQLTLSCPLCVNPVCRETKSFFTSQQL
UniProt O00444, whole entry: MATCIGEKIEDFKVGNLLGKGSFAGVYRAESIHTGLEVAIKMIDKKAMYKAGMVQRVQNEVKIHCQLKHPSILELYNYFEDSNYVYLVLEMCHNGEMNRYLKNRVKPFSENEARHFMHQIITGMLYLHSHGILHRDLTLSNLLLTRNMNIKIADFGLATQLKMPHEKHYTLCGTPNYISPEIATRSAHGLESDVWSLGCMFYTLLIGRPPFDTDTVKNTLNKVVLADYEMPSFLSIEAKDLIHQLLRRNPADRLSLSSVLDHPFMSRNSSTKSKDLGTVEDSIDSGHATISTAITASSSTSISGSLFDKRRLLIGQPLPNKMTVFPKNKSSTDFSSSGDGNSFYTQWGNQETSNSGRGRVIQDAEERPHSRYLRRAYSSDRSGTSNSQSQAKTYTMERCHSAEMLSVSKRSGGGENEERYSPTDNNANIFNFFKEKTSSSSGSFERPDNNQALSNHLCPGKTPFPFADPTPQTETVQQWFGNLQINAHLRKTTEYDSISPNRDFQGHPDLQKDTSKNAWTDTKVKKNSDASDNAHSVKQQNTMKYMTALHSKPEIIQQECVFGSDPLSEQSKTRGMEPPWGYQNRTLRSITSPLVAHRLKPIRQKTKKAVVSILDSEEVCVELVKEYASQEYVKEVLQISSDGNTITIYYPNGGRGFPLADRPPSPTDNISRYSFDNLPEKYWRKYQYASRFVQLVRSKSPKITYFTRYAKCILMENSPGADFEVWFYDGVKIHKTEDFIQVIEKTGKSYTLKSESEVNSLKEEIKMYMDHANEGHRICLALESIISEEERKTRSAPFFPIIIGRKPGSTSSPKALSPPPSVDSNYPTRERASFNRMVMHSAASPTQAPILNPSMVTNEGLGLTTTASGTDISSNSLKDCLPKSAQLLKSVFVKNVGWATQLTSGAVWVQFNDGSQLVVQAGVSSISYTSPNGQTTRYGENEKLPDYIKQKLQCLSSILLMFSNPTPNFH
UniProt P16083, whole entry: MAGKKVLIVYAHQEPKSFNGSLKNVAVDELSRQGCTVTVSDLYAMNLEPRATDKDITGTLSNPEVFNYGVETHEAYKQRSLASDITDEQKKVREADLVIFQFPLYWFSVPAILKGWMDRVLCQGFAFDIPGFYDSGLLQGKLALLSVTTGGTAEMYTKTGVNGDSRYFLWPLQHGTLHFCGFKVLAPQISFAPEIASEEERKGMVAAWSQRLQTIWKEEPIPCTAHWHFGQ
UniProt Q15375, 28-998 limits assumed: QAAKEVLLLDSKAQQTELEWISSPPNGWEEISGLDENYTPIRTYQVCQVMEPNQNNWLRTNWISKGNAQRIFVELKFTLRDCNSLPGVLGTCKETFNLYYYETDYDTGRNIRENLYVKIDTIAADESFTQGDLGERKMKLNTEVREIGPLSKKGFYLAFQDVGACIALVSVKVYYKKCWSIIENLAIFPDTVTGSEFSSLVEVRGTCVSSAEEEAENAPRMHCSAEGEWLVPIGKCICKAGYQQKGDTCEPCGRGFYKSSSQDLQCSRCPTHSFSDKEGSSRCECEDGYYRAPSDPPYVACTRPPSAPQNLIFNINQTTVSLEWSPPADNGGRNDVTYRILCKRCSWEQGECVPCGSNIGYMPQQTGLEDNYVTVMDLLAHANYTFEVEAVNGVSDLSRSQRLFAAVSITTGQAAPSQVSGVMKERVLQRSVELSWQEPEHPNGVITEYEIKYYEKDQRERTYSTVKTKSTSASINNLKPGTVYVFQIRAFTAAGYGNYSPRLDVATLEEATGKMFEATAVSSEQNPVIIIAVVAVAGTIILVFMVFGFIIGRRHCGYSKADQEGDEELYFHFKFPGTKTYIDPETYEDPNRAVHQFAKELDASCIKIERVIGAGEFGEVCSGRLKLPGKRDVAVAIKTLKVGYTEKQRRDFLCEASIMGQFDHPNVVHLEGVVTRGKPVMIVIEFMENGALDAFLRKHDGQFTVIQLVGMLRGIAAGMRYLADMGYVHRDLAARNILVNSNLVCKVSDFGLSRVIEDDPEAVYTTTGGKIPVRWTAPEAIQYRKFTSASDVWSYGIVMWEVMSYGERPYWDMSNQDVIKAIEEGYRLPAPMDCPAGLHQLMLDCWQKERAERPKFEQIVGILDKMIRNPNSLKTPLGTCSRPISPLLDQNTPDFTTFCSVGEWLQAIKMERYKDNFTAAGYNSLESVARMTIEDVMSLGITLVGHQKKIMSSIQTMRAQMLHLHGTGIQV
UniProt O14733, whole entry: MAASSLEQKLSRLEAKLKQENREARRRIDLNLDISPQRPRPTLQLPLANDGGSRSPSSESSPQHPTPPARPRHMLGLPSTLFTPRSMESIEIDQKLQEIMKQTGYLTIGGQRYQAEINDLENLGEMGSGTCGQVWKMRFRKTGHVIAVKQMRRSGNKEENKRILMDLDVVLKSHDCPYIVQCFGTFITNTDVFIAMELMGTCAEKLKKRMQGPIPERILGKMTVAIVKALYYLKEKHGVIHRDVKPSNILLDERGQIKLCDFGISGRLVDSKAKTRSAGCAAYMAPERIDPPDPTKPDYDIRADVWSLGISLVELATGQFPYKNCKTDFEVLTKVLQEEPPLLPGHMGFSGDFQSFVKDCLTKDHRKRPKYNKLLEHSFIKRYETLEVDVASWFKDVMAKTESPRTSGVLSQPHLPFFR
UniProt Q5VT25, whole entry: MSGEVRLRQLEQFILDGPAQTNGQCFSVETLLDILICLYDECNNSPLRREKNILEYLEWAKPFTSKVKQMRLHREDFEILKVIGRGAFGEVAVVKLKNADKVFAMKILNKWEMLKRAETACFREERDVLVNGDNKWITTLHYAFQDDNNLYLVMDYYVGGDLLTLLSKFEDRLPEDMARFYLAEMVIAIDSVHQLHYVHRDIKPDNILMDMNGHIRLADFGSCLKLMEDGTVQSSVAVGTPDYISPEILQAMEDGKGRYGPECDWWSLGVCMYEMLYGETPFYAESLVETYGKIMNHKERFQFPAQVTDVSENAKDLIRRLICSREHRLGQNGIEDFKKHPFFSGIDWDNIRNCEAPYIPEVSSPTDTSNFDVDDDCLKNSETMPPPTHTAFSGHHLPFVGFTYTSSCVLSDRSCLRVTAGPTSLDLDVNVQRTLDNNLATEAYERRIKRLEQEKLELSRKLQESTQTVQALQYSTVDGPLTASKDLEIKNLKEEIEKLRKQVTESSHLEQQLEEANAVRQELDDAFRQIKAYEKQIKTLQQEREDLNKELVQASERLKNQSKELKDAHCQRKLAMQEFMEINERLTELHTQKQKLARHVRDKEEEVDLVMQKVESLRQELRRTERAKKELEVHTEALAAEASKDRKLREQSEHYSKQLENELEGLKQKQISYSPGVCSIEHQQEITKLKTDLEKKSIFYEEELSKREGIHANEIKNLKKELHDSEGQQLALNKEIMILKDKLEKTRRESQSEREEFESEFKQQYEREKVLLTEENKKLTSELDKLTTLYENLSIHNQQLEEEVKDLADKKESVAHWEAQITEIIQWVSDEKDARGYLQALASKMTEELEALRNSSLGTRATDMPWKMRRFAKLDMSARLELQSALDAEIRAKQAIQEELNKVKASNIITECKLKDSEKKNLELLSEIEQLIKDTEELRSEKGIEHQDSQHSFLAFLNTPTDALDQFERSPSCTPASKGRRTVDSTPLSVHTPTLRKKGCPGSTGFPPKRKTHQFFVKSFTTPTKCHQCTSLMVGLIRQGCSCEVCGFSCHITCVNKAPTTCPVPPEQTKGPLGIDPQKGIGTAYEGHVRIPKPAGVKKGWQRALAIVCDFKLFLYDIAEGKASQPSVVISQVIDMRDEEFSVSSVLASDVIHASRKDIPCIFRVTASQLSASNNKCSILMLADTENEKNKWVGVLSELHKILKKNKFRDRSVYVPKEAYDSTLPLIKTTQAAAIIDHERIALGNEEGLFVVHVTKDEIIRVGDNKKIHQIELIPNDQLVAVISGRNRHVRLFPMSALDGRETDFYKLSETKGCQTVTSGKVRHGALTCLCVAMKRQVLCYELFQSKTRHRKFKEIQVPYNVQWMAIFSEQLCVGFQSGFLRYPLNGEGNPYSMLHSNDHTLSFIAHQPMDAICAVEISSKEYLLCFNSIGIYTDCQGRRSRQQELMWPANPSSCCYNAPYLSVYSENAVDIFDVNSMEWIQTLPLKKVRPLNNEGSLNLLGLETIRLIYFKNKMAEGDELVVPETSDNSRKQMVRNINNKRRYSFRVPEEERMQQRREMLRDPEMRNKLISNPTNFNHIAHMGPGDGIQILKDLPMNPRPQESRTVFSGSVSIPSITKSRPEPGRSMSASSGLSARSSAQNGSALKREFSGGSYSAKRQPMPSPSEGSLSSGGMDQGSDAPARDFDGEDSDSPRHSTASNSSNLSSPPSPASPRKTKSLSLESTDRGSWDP
UniProt Q96SB4, whole entry: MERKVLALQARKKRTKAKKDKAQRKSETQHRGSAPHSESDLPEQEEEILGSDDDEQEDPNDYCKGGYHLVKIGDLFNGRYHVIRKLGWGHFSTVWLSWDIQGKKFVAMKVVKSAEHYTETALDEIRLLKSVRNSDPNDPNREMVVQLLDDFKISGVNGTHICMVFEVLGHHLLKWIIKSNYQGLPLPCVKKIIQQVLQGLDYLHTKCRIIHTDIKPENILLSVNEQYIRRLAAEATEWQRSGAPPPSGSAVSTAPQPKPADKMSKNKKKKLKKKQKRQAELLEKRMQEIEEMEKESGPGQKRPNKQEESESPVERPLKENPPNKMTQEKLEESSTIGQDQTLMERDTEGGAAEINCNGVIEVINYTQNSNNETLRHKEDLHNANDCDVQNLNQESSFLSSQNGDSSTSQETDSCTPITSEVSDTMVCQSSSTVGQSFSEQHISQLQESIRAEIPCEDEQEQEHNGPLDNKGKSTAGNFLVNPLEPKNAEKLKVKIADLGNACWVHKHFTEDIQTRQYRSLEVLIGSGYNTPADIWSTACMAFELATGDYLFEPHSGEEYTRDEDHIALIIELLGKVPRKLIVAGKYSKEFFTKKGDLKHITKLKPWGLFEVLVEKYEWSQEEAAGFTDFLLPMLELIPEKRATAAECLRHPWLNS

Q: Which dTm [1] does the source give for `Cc1ccc(C(=O)Nc2ccc(CN3CCN(C)CC3)c(C(F)(F)F)c2)cc1C#Cc1ccc2cn[nH]c2c1` here?
A: The dTm was 0.61 K.

Q: What about the dTm [2] of the same compound?
A: The dTm was 5.30 K.

Q: And the dTm [3]?
A: Its dTm is 8.80 K.

Q: What about the dTm [4] of the same compound?
A: Its dTm is -0.14 K.

Q: And the dTm [5]?
A: Its dTm is -2.04 K.

Q: What about the dTm [6] of the same compound?
A: Its dTm is -5.80 K.

Q: And the dTm [7]?
A: The dTm was -0.86 K.

Q: And the dTm [8]?
A: The dTm was 9.20 K.

Q: And the dTm [9]?
A: The dTm was 7.72 K.

Q: And the dTm [10]?
A: The dTm was 5.08 K.

Q: What about the dTm [11] of the same compound?
A: Its dTm is 2.22 K.

Q: And the dTm [12]?
A: Its dTm is 7.00 K.

Q: And the dTm [13]?
A: Its dTm is -2.84 K.

Q: What about the dTm [14] of the same compound?
A: The dTm was 0.29 K.

Q: What about the dTm [15] of the same compound?
A: The dTm was 0.94 K.

Q: And the dTm [16]?
A: Its dTm is 5.31 K.

Q: And the dTm [17]?
A: Its dTm is 2.76 K.

Q: What about the dTm [18] of the same compound?
A: The dTm was 1.68 K.

Q: And the dTm [19]?
A: The dTm was -7.35 K.

Q: And the dTm [20]?
A: Its dTm is 0.46 K.

Q: And the dTm [21]?
A: Its dTm is -5.87 K.

Q: What about the dTm [22] of the same compound?
A: Its dTm is 4.22 K.

Q: What about the dTm [23] of the same compound?
A: Its dTm is 8.82 K.

Q: What about the dTm [24] of the same compound?
A: Its dTm is -4.10 K.

Q: What about the dTm [25] of the same compound?
A: Its dTm is 4.10 K.

Q: What about the dTm [26] of the same compound?
A: Its dTm is 2.80 K.

Q: What about the dTm [27] of the same compound?
A: Its dTm is 0.99 K.

Q: What about the dTm [28] of the same compound?
A: Its dTm is -0.16 K.

Q: And the dTm [29]?
A: The dTm was 0.37 K.

Q: And the dTm [30]?
A: Its dTm is 2.23 K.

Q: And the dTm [31]?
A: Its dTm is -5.25 K.

Q: And the dTm [32]?
A: The dTm was -4.28 K.

Q: And the dTm [33]?
A: Its dTm is 7.16 K.

Q: What about the dTm [34] of the same compound?
A: Its dTm is -3.85 K.

Q: And the dTm [35]?
A: The dTm was 9.31 K.
